CycPeptMPDB entries from one study

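Lipid, pH, incubation time, direction and concentration are not recorded in the data file. The list need not hold all peptides of the study. Peptides that the database sets to -10, its floor, are left out.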

PAMPA measures passive passage through an artificial lipid membrane.
Permeability is in 10^-6 cm/s, converted from the database's log10 values; higher is more permeable.

SMILES,PAMPA (10^-6 cm/s)
CC(C)C[C@@H]1C(=O)N2CCC[C@@H]2C(=O)N[C@H](CC(C)C)C(=O)N[C@@H](Cc2ccccc2)C(=O)N2CCC[C@@H]2C(=O)N(C)[C@@H](C)C(=O)N(Cc2ccccc2)CC(=O)N1C,4.5
CC(C)C[C@@H]1C(=O)N[C@@H](Cc2ccccc2)C(=O)N2CCC[C@H]2C(=O)N(C)[C@@H](C)C(=O)N[C@H](CC(C)C)C(=O)N[C@H](CC(C)C)C(=O)N2CCC[C@@H]2C(=O)N1C,1.1
CC(C)C[C@@H]1NC(=O)[C@@H]2CCCN2C(=O)CN(Cc2ccccc2)C(=O)[C@H](CC(C)C)N(C)C(=O)[C@@H](C)NC(=O)[C@H](Cc2ccccc2)NC1=O,1
CC(C)C[C@@H]1C(=O)N[C@@H](Cc2ccccc2)C(=O)N2CCC[C@@H]2C(=O)N[C@@H](Cc2ccccc2)CC(=O)N[C@H](CC(C)C)C(=O)N(Cc2ccccc2)CC(=O)N2CCC[C@H]2C(=O)N1C,2.1
CCCN1CC(=O)N(C)[C@H](CC(C)C)C(=O)N(C)[C@@H](CC(C)C)C(=O)N2CCC[C@H]2C(=O)N(C)[C@@H](CC(C)C)C(=O)N[C@@H](Cc2ccccc2)C(=O)N2CCC[C@H]2C1=O,8.3
CC(C)C[C@@H]1C(=O)N2CCC[C@H]2C(=O)N[C@H](CC(C)C)C(=O)N[C@@H](Cc2ccccc2)C(=O)N[C@H](C)C(=O)N(C)[C@@H](CC(C)C)C(=O)N1C,7.2
CC(C)C[C@H]1C(=O)N[C@@H](Cc2ccccc2)CC(=O)N2CCC[C@H]2C(=O)N(C)[C@@H](CC(C)C)C(=O)N[C@@H](Cc2ccccc2)C(=O)N2CCC[C@H]2C(=O)N[C@@H](Cc2ccccc2)CC(=O)N1C,2.6
CC(C)C[C@@H]1NC(=O)[C@H](C)NC(=O)[C@@H]2CCCN2C(=O)[C@H](Cc2ccccc2)NC(=O)CN(Cc2ccccc2)C(=O)[C@@H]2CCCN2C(=O)[C@@H](CC(C)C)NC1=O,0.78
CC(C)C[C@@H]1NC(=O)[C@@H](CC(C)C)N(C)C(=O)[C@@H](C)N(C)C(=O)[C@H](Cc2ccccc2)NC(=O)[C@@H](CC(C)C)NC(=O)[C@H]2CCCN2C1=O,3.1
CC(C)C[C@@H]1C(=O)N2CCC[C@@H]2C(=O)N(Cc2ccccc2)CC(=O)N[C@@H](Cc2ccccc2)C(=O)N2CCC[C@H]2C(=O)N(C)[C@@H](C)C(=O)N(C)[C@H](CC(C)C)C(=O)N1C,2.6
CC(C)C[C@@H]1C(=O)N[C@@H](Cc2ccccc2)C(=O)N2CCC[C@H]2C(=O)N[C@@H](Cc2ccccc2)CC(=O)N(C)[C@@H](CC(C)C)C(=O)N(C)[C@H](CC(C)C)C(=O)N2CCC[C@@H]2C(=O)N1C,2.4
CC(C)C[C@@H]1NC(=O)[C@@H](C)NC(=O)[C@H]2CCCN2C(=O)[C@H](Cc2ccccc2)NC(=O)[C@@H](CC(C)C)N(C)C(=O)[C@H]2CCCN2C(=O)[C@H](CC(C)C)N(C)C1=O,1.8
CC(C)C[C@@H]1NC(=O)[C@H]2CCCN2C(=O)[C@H](CC(C)C)N(C)C(=O)[C@@H](CC(C)C)N(C)C(=O)[C@@H](C)NC(=O)[C@H](Cc2ccccc2)NC1=O,1.5
CC(C)C[C@@H]1NC(=O)[C@@H](C)NC(=O)[C@H](Cc2ccccc2)NC(=O)[C@H](CC(C)C)N(C)C(=O)[C@@H]2CCCN2C(=O)[C@H](CC(C)C)NC1=O,0.54
CC(C)C[C@@H]1C(=O)N[C@@H](Cc2ccccc2)C(=O)N2CCC[C@@H]2C(=O)N(C)[C@H](C)C(=O)N[C@H](CC(C)C)C(=O)N[C@@H](Cc2ccccc2)CC(=O)N2CCC[C@H]2C(=O)N1C,1.6
CC(C)C[C@@H]1NC(=O)[C@@H](C)NC(=O)[C@@H]2CCCN2C(=O)[C@H](Cc2ccccc2)NC(=O)CN(Cc2ccccc2)C(=O)[C@@H]2CCCN2C(=O)CN(Cc2ccccc2)C1=O,0.33
CC(C)C[C@@H]1C(=O)N2CCC[C@H]2C(=O)N(C)[C@@H](CC(C)C)C(=O)N[C@@H](Cc2ccccc2)C(=O)N2CCC[C@H]2C(=O)N(C)[C@H](C)C(=O)N[C@H](CC(C)C)C(=O)N1C,4.7
CC(C)C[C@H]1NC(=O)[C@@H]2CCCN2C(=O)[C@H](CC(C)C)N(C)C(=O)[C@@H](CC(C)C)NC(=O)[C@H](C)N(C)C(=O)[C@H]2CCCN2C(=O)[C@H](Cc2ccccc2)NC1=O,1.4
CC(C)C[C@@H]1C(=O)N[C@@H](Cc2ccccc2)C(=O)N2CCC[C@@H]2C(=O)N(C)[C@H](C)C(=O)N[C@H](CC(C)C)C(=O)N(C)[C@@H](CC(C)C)C(=O)N2CCC[C@H]2C(=O)N1C,6.3
CC(C)C[C@@H]1NC(=O)[C@H](C)NC(=O)[C@@H]2CCCN2C(=O)[C@H](Cc2ccccc2)NC(=O)[C@@H](CC(C)C)NC(=O)[C@@H]2CCCN2C(=O)CN(Cc2ccccc2)C1=O,0.4
CC(C)C[C@@H]1C(=O)N(Cc2ccccc2)CC(=O)N2CCC[C@H]2C(=O)N(C)[C@H](CC(C)C)C(=O)N[C@@H](Cc2ccccc2)C(=O)N2CCC[C@H]2C(=O)N[C@H](C)C(=O)N1C,0.93

Values of Townsend et al. 2020, doi:10.26434/chemrxiv.13335941.v1, as listed in CycPeptMPDB.